Laboratory results taken from PubChem BioAssay AID651572 (The Scripps Research Institute Molecular Screening Center, 2012).
The entries are a selection whose mix differs from that of the whole data set. Activity calls are given as the source filed them.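 Rule for the calls: active = inhibition above a per-plate limit, mean inhibition of low control wells plus 3 SD (cut at about 25% in these data); inactive = the rest.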

Sequences of proteins named here, by UniProt entry; tags and fusion partners are left off. Residues count along the entry.
UniProt Q62848, 1-136 limits assumed: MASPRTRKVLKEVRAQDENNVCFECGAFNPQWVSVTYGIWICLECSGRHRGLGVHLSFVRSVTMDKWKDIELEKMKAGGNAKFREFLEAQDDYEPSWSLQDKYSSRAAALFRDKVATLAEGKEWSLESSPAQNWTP

The compounds below were run against ADP-ribosylation factor GTPase-activating protein 1 (Rattus norvegicus) (UniProt Q62848) (assay: inhibitors of rat ARFGAP1 GAP activity, primary screen, biochemical, fluorescence polarization, GDP tracer (AID 651572;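 note: 0% = DMSO wells with enzyme and 100% = wells lacking Arfgap1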)). Settings: Arfgap1-stimulated ARF1 GTP hydrolysis, GDP FP detection; at 16.5 µM; active compounds read high.
Procedure, shortened: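 Repeats: one replicate per compound; assay system: rat Arfgap1 catalytic domain, aa 1-136; times: enzyme reaction 120 min at 25 °C after 20 min preincubation; detection: FP of antibody-bound GDP Alexa 633 tracer, ex 620/em 688 nm; benchmarks: high control wells lacking Arfgap1, low control full reaction with DMSO; reagent: human ARF1(Δ1-17)-GTP substrate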
In the case of O=[N+]([O-])c1cc([N+](=O)[O-])c(O)c([N+](=O)[O-])c1.c1ccc(Oc2ccncc2)cc1, the inhibition is reported as inactive: 1.95%. In the case of CCOC(=O)c1ccc(NP(C)(=O)Oc2ccc(OC)cc2)cc1 (stereo unspecified), the inhibition is reported as inactive: 4.16%. With CCOP(C)(=S)SCC(=O)NC(C)C(=O)O (stereo unspecified) the inhibition was inactive: 3.45%. For CP(=O)(Nc1ccccn1)Oc1ccc(Cl)cc1 (stereo unspecified), the inhibition was inactive: 13.2%. With CP(=O)(Nc1ccc(SC(F)(F)F)cc1)Oc1ccc(Cl)cc1 (stereo unspecified) the inhibition was inactive: -7.16%. With Cc1cccc(C)c1OP(C)(=O)Nc1ccc(SC(F)(F)F)cc1 (stereo unspecified) the inhibition was inactive: 5.39%. With CP(=O)(Oc1ccccc1)OC(c1ccccc1)C(F)(F)F (stereo unspecified) the inhibition was inactive: 12.8%. For CCc1ccc(OP(C)(=O)N2CCN(c3ccc([N+](=O)[O-])cc3)CC2)cc1 (stereo unspecified), the inhibition was inactive: 0.29%. With CP(=O)(NC(=O)Nc1ccccc1)Oc1ccccc1 (stereo unspecified) the inhibition was inactive: 5.71%. With Cc1cc(C)cc(OP(C)(=O)Nc2ccc(SC(F)(F)F)cc2)c1 (stereo unspecified) the inhibition was inactive: 9.51%. In the case of CP(=S)(Nn1cnnc1)Oc1ccccc1 (stereo unspecified), the inhibition is reported as inactive: -7.18%. CP(=O)(Nc1ccccc1Br)Oc1ccccc1 (stereo unspecified) was tested, and the inhibition was inactive: -4.19%. COc1ccccc1OP(C)(=O)Nc1ccccc1 (stereo unspecified) was tested, and the inhibition was inactive: 1.73%. COc1ccccc1OP(C)(=O)Nc1ccc(C)cc1 (stereo unspecified) was tested, and the inhibition was inactive: 9.44%. In the case of Cc1ccc(NP(C)(=O)Oc2ccccc2)c(C)c1 (stereo unspecified), the inhibition is reported as inactive: -2.65%. In the case of CCOC(=O)c1ccc(NP(C)(=O)Oc2ccccc2)cc1 (stereo unspecified), the inhibition is reported as inactive: 9.31%. Cc1cc(C)cc(OP(C)(N)=O)c1 (stereo unspecified) was tested, and the inhibition was inactive: -1.5%. In the case of COc1ccccc1OP(C)(=O)Nc1cc(Cl)ccc1C (stereo unspecified), the inhibition is reported as inactive: -0.22%. With COc1ccc(OP(C)(=O)Nc2cccc(F)c2)cc1 (stereo unspecified) the inhibition was inactive: 13%. In the case of O=[N+]([O-])c1cc([N+](=O)[O-])c(Nc2cccnc2)c([N+](=O)[O-])c1, the inhibition is reported as inactive: 4.17%. For O=[N+]([O-])c1ccc2c(c1)C=Nc1ccccc1O2, the inhibition was inactive: 1.62%. With CC(C)(C)c1ccc(OP(C)(=O)Nc2ccc(SC(F)(F)F)cc2)cc1 (stereo unspecified) the inhibition was inactive: -3.65%. For Cc1cccc(C)c1OP(C)(N)=O (stereo unspecified), the inhibition was inactive: -5.83%. For COc1ccccc1-c1ccccn1.O=[N+]([O-])c1cc([N+](=O)[O-])c(O)c([N+](=O)[O-])c1, the inhibition was inactive: -1.4%. With CCN(CC)CCCOC(=O)C(O)(c1ccccc1)c1ccccc1 the inhibition was inactive: 10.1%. With Cc1ccc(C)c(NP(C)(=O)Oc2ccccc2)c1 (stereo unspecified) the inhibition was inactive: 2.48%. CP(=O)(Nc1cccc(Br)c1)Oc1ccccc1 (stereo unspecified) was tested, and the inhibition was inactive: -0.24%. In the case of Cc1cc(C)cc(OP(C)(=O)Nc2ccccn2)c1 (stereo unspecified), the inhibition is reported as inactive: 2.63%. COc1ccccc1OP(C)(=O)Nc1cccc(Br)c1 (stereo unspecified) was tested, and the inhibition was inactive: -6.3%. With CCOC(=O)c1ccc(NP(C)(=O)Oc2cc(C)cc(C)c2)cc1 (stereo unspecified) the inhibition was inactive: -2.74%. For Cc1cc(C)cc(OP(C)(=O)Nc2ccc(C)cc2C)c1 (stereo unspecified), the inhibition was inactive: -2.71%. In the case of CC1=NCCc2c1[nH]c1ccccc21.O=[N+]([O-])c1cc([N+](=O)[O-])c(O)c([N+](=O)[O-])c1, the inhibition is reported as inactive: -2.51%. For O=C(O)c1cccc(Nc2c([N+](=O)[O-])cc([N+](=O)[O-])cc2[N+](=O)[O-])c1, the inhibition was inactive: 14.7%. With CN1CCCCC1COC(=O)C1(O)c2ccccc2CCc2ccccc21 (stereo unspecified) the inhibition was inactive: 7.47%. For COc1ccccc1OP(C)(=O)Nc1c(C)cccc1C (stereo unspecified), the inhibition was inactive: -6.3%. With COc1ccc(-c2ccccn2)cc1.O=[N+]([O-])c1cc([N+](=O)[O-])c(O)c([N+](=O)[O-])c1 the inhibition was inactive: 7.99%. In the case of CP(=O)(Nc1ccc(SC(F)(F)F)cc1)Oc1ccccc1 (stereo unspecified), the inhibition is reported as inactive: 16%. For CCCOc1ccc(NP(C)(=O)Oc2ccc(Cl)cc2)cc1 (stereo unspecified), the inhibition was inactive: -2.41%. For O=[N+]([O-])c1cc([N+](=O)[O-])c(Nc2nnnn2CCO)c([N+](=O)[O-])c1, the inhibition was inactive: 8.72%. For CCOC(=O)C(CC)C1=NC(C)(C)Cc2ccccc21.O=[N+]([O-])c1cc([N+](=O)[O-])c(O)c([N+](=O)[O-])c1 (stereo unspecified), the inhibition was inactive: 2.31%. With O=[N+]([O-])c1cc([N+](=O)[O-])c(-c2cnn(-c3ccccc3)c2)c([N+](=O)[O-])c1 the inhibition was inactive: -3.84%. Cc1nc2ccc3ccccc3c2s1.O=[N+]([O-])c1cc([N+](=O)[O-])c(O)c([N+](=O)[O-])c1 was tested, and the inhibition was inactive: 5.1%. In the case of O=[N+]([O-])c1cc([N+](=O)[O-])c(-n2nnc3ccccc32)c([N+](=O)[O-])c1, the inhibition is reported as inactive: -6.91%. For CN(Cc1cccnc1)C(=O)COc1ccc(Cl)c(Cl)c1.O=[N+]([O-])c1cc([N+](=O)[O-])c(O)c([N+](=O)[O-])c1, the inhibition was inactive: 0.35%. For CP(=O)(Nc1ccc2c(c1)OCCO2)Oc1ccccc1 (stereo unspecified), the inhibition was inactive: -0.61%. In the case of Cc1ccccc1NP(C)(=O)Nc1ccccc1C, the inhibition is reported as inactive: -4.24%. In the case of O=[N+]([O-])c1cc([N+](=O)[O-])c(C(F)(F)F)c([N+](=O)[O-])c1O, the inhibition is reported as inactive: 4.7%. With CP(=O)(Nc1ccc(SC(F)(F)F)cc1)Oc1ccc(F)cc1 (stereo unspecified) the inhibition was inactive: -12.3%. For CCOP(C)(=S)SCC(=O)NC(C)(CC)C(=O)O (stereo unspecified), the inhibition was inactive: -9.61%. For CCOP(=O)(CC)OCC, the inhibition was inactive: -8.11%. In the case of O=[N+]([O-])c1ccc(OP2(=O)COCCO2)cc1 (stereo unspecified), the inhibition is reported as inactive: 3.81%. O=[N+]([O-])c1cc([N+](=O)[O-])c(NCC2CCS(=O)(=O)C2)c([N+](=O)[O-])c1 (stereo unspecified) was tested, and the inhibition was inactive: 2.32%. Cc1cc(-c2cccc3ccccc23)c(C)cn1.O=[N+]([O-])c1cc([N+](=O)[O-])c(O)c([N+](=O)[O-])c1 was tested, and the inhibition was inactive: 3.94%. In the case of Cc1c(C(c2ccc3c(c2)OCO3)c2c(C)n(C)n(-c3ccccc3)c2=O)c(=O)n(-c2ccccc2)n1C.O=[N+]([O-])c1cc([N+](=O)[O-])c(O)c([N+](=O)[O-])c1, the inhibition is reported as inactive: 6.88%. In the case of COc1ccc(OP(C)(=O)Nc2cccc(Br)c2)cc1 (stereo unspecified), the inhibition is reported as inactive: 0.15%. In the case of CN(C)CCOC(=O)C(O)(c1ccccc1)C1CCCCC1 (stereo unspecified), the inhibition is reported as inactive: 3.32%.
